# Laboratory results from patent publication US20250195530A1, “POLQ INHIBITORS” (ASTRAZENECA AB, priority 2022, published 2025).
# Protein sequences, listed by entry. Tags and fused reporters are not part of them. Residues count along the entry.
# UniProt O75417, 1780-2590: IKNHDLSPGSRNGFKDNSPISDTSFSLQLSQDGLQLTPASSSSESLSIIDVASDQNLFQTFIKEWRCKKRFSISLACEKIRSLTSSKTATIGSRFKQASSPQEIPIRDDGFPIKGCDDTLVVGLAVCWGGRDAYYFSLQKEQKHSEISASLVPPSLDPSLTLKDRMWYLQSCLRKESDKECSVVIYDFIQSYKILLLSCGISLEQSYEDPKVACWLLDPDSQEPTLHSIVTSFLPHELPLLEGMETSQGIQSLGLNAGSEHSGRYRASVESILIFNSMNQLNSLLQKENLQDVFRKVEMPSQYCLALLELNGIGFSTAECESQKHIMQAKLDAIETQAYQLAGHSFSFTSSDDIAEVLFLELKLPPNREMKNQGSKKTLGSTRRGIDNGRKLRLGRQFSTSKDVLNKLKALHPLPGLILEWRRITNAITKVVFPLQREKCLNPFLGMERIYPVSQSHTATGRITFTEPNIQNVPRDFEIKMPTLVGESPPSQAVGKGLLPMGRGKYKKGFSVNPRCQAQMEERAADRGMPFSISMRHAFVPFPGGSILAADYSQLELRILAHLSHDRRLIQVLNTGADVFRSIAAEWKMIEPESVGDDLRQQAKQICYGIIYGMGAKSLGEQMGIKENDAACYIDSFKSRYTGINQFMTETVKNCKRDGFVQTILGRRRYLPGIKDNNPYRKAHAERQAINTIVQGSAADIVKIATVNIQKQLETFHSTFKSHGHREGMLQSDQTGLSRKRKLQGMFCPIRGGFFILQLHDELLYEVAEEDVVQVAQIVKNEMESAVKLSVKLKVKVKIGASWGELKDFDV
# Biological target: isolated polymerase domain (I1780-V2590) of DNA polymerase theta (Polθ) (Homo sapiens (Human), UniProt O75417)
# Test: biochemical
row,Compound,IC50 [nM]
1,"Cc1ccnc(Cn2c(-c3ccc(CC(=O)N4CC5(CCN5)C4)cc3Cl)nc3c(OC4(C)CC4)ncnc32)c1 [Example T556, 2-(3-chloro-4-(6-(1-methylcyclopropoxy)-9-((4-methylpyridin-2-yl)methyl)-9H-purin-8-yl)phenyl)-1-(1,6-diazaspiro[3.3]heptan-6-yl)ethan-1-one]",3.98
2,"Cc1ccnc(Cn2c(-c3ccc(OCC(=O)NC(C)(C)CO)cc3Cl)nc3c(OC4(C)CC4)ncnc32)c1 [Example T519, 2-(3-chloro-4-(6-(1-methylcyclopropoxy)-9-((4-methylpyridin-2-yl)methyl)-9H-purin-8-yl)phenoxy)-N-(1-hydroxy-2-methylpropan-2-yl)acetamide]",7.94
3,"CC1(Oc2ncnc3c2nc(-c2ccc(OCCN4CCNCC4)cc2Cl)n3Cc2cncc(Cl)c2)CC1 [Example T379, 8-(2-chloro-4-(2-(piperazin-1-yl)ethoxy)phenyl)-9-((5-chloropyridin-3-yl)methyl)-6-(1-methylcyclopropoxy)-9H-purine]",20
4,"CC(c1cc(Cl)ccn1)n1c(-c2ccc(OCCN3CCNCC3)cc2Cl)nc2c(OC3(C)CC3)ncnc21 (single isomer, unassigned; isomer 2) [Example S5, 8-(2-chloro-4-(2-(piperazin-1-yl)ethoxy)phenyl)-9-(1-(4-chloropyridin-2-yl)ethyl)-6-(1-methylcyclopropoxy)-9H-purine (Isomer 2)]",3.98
5,"C[C@@H](CCOc1ccc(-c2nc3c(OC4(C)CC4)ncnc3n2Cc2cccc(C#N)c2)c(Cl)c1)C(=O)O [Example U8, (S)-4-(3-chloro-4-(9-(3-cyanobenzyl)-6-(1-methylcyclopropoxy)-9H-purin-8-yl)phenoxy)-2-methylbutanoic acid]",5.01
6,"CC(CCOc1ccc(-c2nc3c(OC4(C)CC4)ncnc3n2Cc2ccccc2C#N)c(Cl)c1)C(=O)O (racemic) [Example T400, 4-(3-chloro-4-(9-(2-cyanobenzyl)-6-(1-methylcyclopropoxy)-9H-purin-8-yl)phenoxy)-2-methylbutanoic acid]",6.31
7,"CC1(Oc2ncnc3c2nc(-c2ccc(CC(N)=O)cc2Cl)n3CCc2cccc(Br)n2)CC1 [Example T46, 2-(4-(9-(2-(6-bromopyridin-2-yl)ethyl)-6-(1-methylcyclopropoxy)-9H-purin-8-yl)-3-chlorophenyl)acetamide]",1580
8,"Cc1ccc(C)c(Cn2c(-c3ccc(OCCC(C)C(=O)O)cc3Cl)nc3c(OC4(C)CC4)ncnc32)c1 (single isomer, unassigned) [Example T572, 4-(3-chloro-4-(9-(2,5-dimethylbenzyl)-6-(1-methylcyclopropoxy)-9H-purin-8-yl)phenoxy)-2-methylbutanoic acid]",5.01
9,"CC1(Oc2ncnc3c2nc(-c2ccc(OCCN4CCNCC4)cc2Cl)n3Cc2ccc(F)cn2)CC1 [Example T350, 8-(2-chloro-4-(2-(piperazin-1-yl)ethoxy)phenyl)-9-((5-fluoropyridin-2-yl)methyl)-6-(1-methylcyclopropoxy)-9H-purine]",15.8
10,"Cc1ccnc(Cn2c(-c3ccc(C(=O)N4CC[C@@H](O)C4)cc3Cl)nc3c(OC4(C)CC4)ncnc32)c1 [Example T311, (R)-(3-chloro-4-(6-(1-methylcyclopropoxy)-9-((4-methylpyridin-2-yl)methyl)-9H-purin-8-yl)phenyl)(3-hydroxypyrrolidin-1-yl)methanone]",7.94
11,"Cc1ccnc(Cn2c(-c3ccc(C(=O)N4CCC4)cc3Cl)nc3c(OC4(C)CC4)ncnc32)c1 [Example T169, azetidin-1-yl(3-chloro-4-(6-(1-methylcyclopropoxy)-9-((4-methylpyridin-2-yl)methyl)-9H-purin-8-yl)phenyl)methanone]",6.31
12,"Cc1ccnc(Cn2c(-c3ccc(CC(=O)O)cc3Cl)nc3c(OC4(C)CC4)ncnc32)c1 [Example T49, 2-(3-chloro-4-(6-(1-methylcyclopropoxy)-9-((4-methylpyridin-2-yl)methyl)-9H-purin-8-yl)phenyl)acetic acid]",7.94
13,"CC(CCOc1ccc(-c2nc3c(OC4(C)CC4)ncnc3n2Cc2ccccc2C2CC2)c(Cl)c1)C(=O)O (single isomer, unassigned) [Example T599, 4-(3-chloro-4-(9-(2-cyclopropylbenzyl)-6-(1-methylcyclopropoxy)-9H-purin-8-yl)phenoxy)-2-methylbutanoic acid]",6.31
14,"Cc1ccnc(Cn2c(-c3ccc(CCNC(=O)[C@@H](C)O)cc3Cl)nc3c(OC4(C)CC4)ncnc32)c1 [Example T368, (R)-N-(3-chloro-4-(6-(1-methylcyclopropoxy)-9-((4-methylpyridin-2-yl)methyl)-9H-purin-8-yl)phenethyl)-2-hydroxypropanamide]",5.01
15,"CC1(Oc2ncnc3c2nc(-c2ccc(OCCC(=O)O)cc2Cl)n3Cc2ccc(Cl)c(Cl)c2)CC1 [Example T84, 3-(3-chloro-4-(9-(3,4-dichlorobenzyl)-6-(1-methylcyclopropoxy)-9H-purin-8-yl)phenoxy)propanoic acid]",10
16,"CC1(Oc2ncnc3c2nc(-c2ccc(OCCCCOCC(=O)O)cc2Cl)n3Cc2cccc(Cl)c2)CC1 [Example T445, 2-(4-(3-chloro-4-(9-(3-chlorobenzyl)-6-(1-methylcyclopropoxy)-9H-purin-8-yl)phenoxy)butoxy)acetic acid]",5.01

row,Compound,IC50 [nM]
1,"Cc1ccnc(Cn2c(-c3ccc(OCC(F)CO)cc3Cl)nc3c(OC4(C)CC4)ncnc32)c1 (single isomer, unassigned) [Example T109, 3-(3-chloro-4-(6-(1-methylcyclopropoxy)-9-((4-methylpyridin-2-yl)methyl)-9H-purin-8-yl)phenoxy)-2-fluoropropan-1-ol]",6.31
2,"Cc1ccnc(Cn2c(-c3ccc(OCC(=O)NC4CC(O)C4)cc3Cl)nc3c(OC4(C)CC4)ncnc32)c1 (stereo not shown) [Example T479, 2-(3-chloro-4-(6-(1-methylcyclopropoxy)-9-((4-methylpyridin-2-yl)methyl)-9H-purin-8-yl)phenoxy)-N-(3-hydroxycyclobutyl)acetamide]",7.94
3,"Cc1ccnc(Cn2c(-c3ccc(C(=O)N(C)CCO)cc3Cl)nc3c(OC4(C)CC4)ncnc32)c1 [Example T220, 3-chloro-N-(2-hydroxyethyl)-N-methyl-4-(6-(1-methylcyclopropoxy)-9-((4-methylpyridin-2-yl)methyl)-9H-purin-8-yl)benzamide]",25.1
4,"Cc1ccnc(Cn2c(-c3cccc(OCCCN4CC[C@@H](O)C4)c3Cl)nc3c(OC4(C)CC4)ncnc32)c1 [Example T593, (R)-1-(3-(2-chloro-3-(6-(1-methylcyclopropoxy)-9-((4-methylpyridin-2-yl)methyl)-9H-purin-8-yl)phenoxy)propyl)pyrrolidin-3-ol]",6.31
5,"Cc1ccnc(Cn2c(-c3ccc(N4CCC(O)CC4=O)cc3Cl)nc3c(OC4(C)CC4)ncnc32)c1 (racemic) [Example T321, 1-(3-chloro-4-(6-(1-methylcyclopropoxy)-9-((4-methylpyridin-2-yl)methyl)-9H-purin-8-yl)phenyl)-4-hydroxypiperidin-2-one]",15.8
6,"CC1(Oc2ncnc3c2nc(-c2ccc(OCCN4CC(O)C4)cc2Cl)n3Cc2cc(C(F)F)ccn2)CC1 [Example T307, 1-(2-(3-chloro-4-(9-((4-(difluoromethyl)pyridin-2-yl)methyl)-6-(1-methylcyclopropoxy)-9H-purin-8-yl)phenoxy)ethyl)azetidin-3-ol]",5.01
7,"CC1(Oc2ncnc3c2nc(-c2cccc(OCCOCC(=O)O)c2Cl)n3Cc2cc(Cl)ccc2F)CC1 [Example U22, 2-(2-(2-chloro-3-(9-(5-chloro-2-fluorobenzyl)-6-(1-methylcyclopropoxy)-9H-purin-8-yl)phenoxy)ethoxy)acetic acid]",5.01
8,"Cc1cc(OCCCN(C)C)ccc1-c1nc2c(OC3(C)CC3)ncnc2n1Cc1cc(Cl)ccn1 [Example T387, 3-(4-(9-((4-chloropyridin-2-yl)methyl)-6-(1-methylcyclopropoxy)-9H-purin-8-yl)-3-methylphenoxy)-N,N-dimethylpropan-1-amine]",7.94
9,"Cc1nnc(Cn2c(-c3ccc(CC(N)=O)cc3Cl)nc3c(OC4(C)CC4)ncnc32)o1 [Example T2, 2-(3-chloro-4-(9-((5-methyl-1,3,4-oxadiazol-2-yl)methyl)-6-(1-methylcyclopropoxy)-9H-purin-8-yl)phenyl)acetamide]",6310
10,"Cc1ccnc(Cn2c(-c3ccc(CCN(C)C)cc3Cl)nc3c(OC4(C)CC4)ncnc32)c1 [Example T236, 2-(3-chloro-4-(6-(1-methylcyclopropoxy)-9-((4-methylpyridin-2-yl)methyl)-9H-purin-8-yl)phenyl)-N,N-dimethylethan-1-amine]",5.01
11,"C[C@@H](CCOc1ccc(-c2nc3c(OC4(C)CC4)ncnc3n2Cc2cc(Cl)ccc2F)c(Cl)c1)C(=O)O [Example U11, (S)-4-(3-chloro-4-(9-(5-chloro-2-fluorobenzyl)-6-(1-methylcyclopropoxy)-9H-purin-8-yl)phenoxy)-2-methylbutanoic acid]",5.01
12,"Cc1ccnc(Cn2c(-c3ccc(OCC(=O)N(C)CC4(O)CC4)cc3Cl)nc3c(OC4(C)CC4)ncnc32)c1 [Example T583, 2-(3-chloro-4-(6-(1-methylcyclopropoxy)-9-((4-methylpyridin-2-yl)methyl)-9H-purin-8-yl)phenoxy)-N-((1-hydroxycyclopropyl)methyl)-N-methylacetamide]",10
13,"Cc1ccc(C)c(Cn2c(-c3ccc(OCCC(C)C(=O)O)cc3Cl)nc3c(OC4(C)CC4)ncnc32)c1 (racemic) [Example T569, 4-(3-chloro-4-(9-(2,5-dimethylbenzyl)-6-(1-methylcyclopropoxy)-9H-purin-8-yl)phenoxy)-2-methylbutanoic acid]",5.01
14,"Cc1ccnc(Cn2c(-c3ccc(N4C[C@H]5CCN[C@H]5C4)cc3Cl)nc3c(OC4(C)CC4)ncnc32)c1 [Example T494, 8-(2-chloro-4-((3aR,6aR)-hexahydropyrrolo[3,4-b]pyrrol-5(1H)-yl)phenyl)-6-(1-methylcyclopropoxy)-9-((4-methylpyridin-2-yl)methyl)-9H-purine]",5.01
15,"Cc1nnc(Cn2c(-c3ccc(CC(N)=O)cc3Cl)nc3c(OC4(C)CC4)ncnc32)s1 [Example T1, 2-(3-chloro-4-(9-((5-methyl-1,3,4-thiadiazol-2-yl)methyl)-6-(1-methylcyclopropoxy)-9H-purin-8-yl)phenyl)acetamide]",794
